Data on one compound can be found in patent EP1277754B1, “IMIDAZOPYRIDINE DERIVATIVES” (YAMANOUCHI PHARMACEUTICAL CO. LTD., priority 2000, dated 2001).

Protein sequences, listed by entry. Tags and fused reporters are not part of them.
UniProt P32871, whole entry: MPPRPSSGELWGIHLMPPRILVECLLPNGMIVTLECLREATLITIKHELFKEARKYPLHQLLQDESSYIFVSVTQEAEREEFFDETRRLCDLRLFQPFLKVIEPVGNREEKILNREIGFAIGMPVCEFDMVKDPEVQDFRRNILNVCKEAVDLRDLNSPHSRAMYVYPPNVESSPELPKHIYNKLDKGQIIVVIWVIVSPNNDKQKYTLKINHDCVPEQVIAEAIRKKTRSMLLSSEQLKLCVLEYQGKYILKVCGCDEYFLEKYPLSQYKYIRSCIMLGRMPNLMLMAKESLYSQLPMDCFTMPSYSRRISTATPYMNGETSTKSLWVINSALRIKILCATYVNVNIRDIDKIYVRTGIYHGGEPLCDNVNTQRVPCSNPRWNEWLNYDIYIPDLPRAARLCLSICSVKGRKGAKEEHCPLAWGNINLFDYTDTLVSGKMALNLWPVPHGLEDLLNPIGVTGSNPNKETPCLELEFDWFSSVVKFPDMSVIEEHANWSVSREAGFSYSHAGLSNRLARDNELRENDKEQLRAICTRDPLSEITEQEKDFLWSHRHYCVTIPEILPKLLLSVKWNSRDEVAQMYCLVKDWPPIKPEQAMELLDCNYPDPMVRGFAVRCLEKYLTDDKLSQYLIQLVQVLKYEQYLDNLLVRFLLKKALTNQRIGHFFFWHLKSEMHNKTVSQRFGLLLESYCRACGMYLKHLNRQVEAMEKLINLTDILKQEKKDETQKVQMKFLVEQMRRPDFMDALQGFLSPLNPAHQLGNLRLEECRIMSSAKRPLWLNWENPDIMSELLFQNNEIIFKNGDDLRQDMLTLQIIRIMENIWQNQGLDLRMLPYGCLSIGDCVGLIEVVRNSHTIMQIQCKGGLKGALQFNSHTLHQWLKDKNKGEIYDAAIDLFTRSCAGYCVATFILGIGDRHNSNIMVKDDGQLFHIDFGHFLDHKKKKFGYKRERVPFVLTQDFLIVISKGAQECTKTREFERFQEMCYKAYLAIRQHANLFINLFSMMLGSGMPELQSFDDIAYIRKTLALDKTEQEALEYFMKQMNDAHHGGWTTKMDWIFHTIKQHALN

The target in the assay is bovine p110α (Bos taurus, UniProt P32871). The note with it: potency relative to LY294002. The method, then: Inhibition was determined using enzyme (bovine p110α) prepared in the baculovirus expression system. […] The resulting mixture was stirred and then centrifuged. […] The radioactivity was measured using Cerenkov light.

In the case of `Cc1ccc([N+](=O)[O-])cc1S(=O)(=O)n1ccc(-c2c(C)nc3ccc(Br)cn23)n1` [Compound 6, 3-(6-Bromo-2-methylimidazo[1,2-a]pyridin-3-yl)-1H-pyrazol-1-yl 2-methyl-5-nitrophenyl sulfone], the “inhibits PI3K ... times as strong as known PI3K inhibitor LY294002” value is on record as “more than 10 times”.
